The numbers were not newly measured in patent EP1134585B1, “Biosensor and method for the monitoring of herbicides” (CONSIGLIO NAZIONALE DELLE RICERCHE, priority 2000, dated 2001), which cites them from elsewhere.

The structures appear in SMILES notation. Some compounds may have been tested in ways that are not shown here.

The data set concerns D1 protein Ser264→Gly. As to conditions: Amaranthus retroflexus; cited from earlier work.

Consider `O=[N+]([O-])c1cc([N+](=O)[O-])c(O)c([N+](=O)[O-])c1`, for which the “Supersensitivity R/S” value is “Picric acid 0,3”.
